Chains of the proteins cited; added tags and fusions are not shown.
UniProt Q02127, whole entry: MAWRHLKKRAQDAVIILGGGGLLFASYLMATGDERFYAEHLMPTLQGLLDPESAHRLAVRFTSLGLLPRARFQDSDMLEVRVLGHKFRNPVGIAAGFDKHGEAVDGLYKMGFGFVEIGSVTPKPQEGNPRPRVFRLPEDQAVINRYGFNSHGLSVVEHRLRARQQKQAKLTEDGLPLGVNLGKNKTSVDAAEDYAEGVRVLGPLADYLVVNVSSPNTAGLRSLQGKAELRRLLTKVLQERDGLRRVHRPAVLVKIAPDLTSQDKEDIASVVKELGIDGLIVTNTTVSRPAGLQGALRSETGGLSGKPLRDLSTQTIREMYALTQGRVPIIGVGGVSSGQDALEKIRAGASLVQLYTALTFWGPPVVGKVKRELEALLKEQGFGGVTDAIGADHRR

According to patent US11505536B2, “Dihydroorotate dehydrogenase inhibitors” (Janssen Biotech, Inc., priority 2019, dated 2022):

Legend:
[1] = system: MOLM-13 cells (human acute myeloid leukemia cells); experiment: MOLM-13 Cellular Assay; details: read-out: MOLM-13 IC50, 72 hours exposure, cell viability by CellTiter-Glo
Description: The following assay is referred to herein as the “MOLM-13 Cellular Assay.” MOLM-13 cells (human acute myeloid leukemia cells) were obtained from DSMZ and were maintained in RPMI 1640+Glutamax+25 mM HEPES (Invitrogen, catalog number 72400) supplemented with 10% heat inactivated fetal bovine serum (FBS; Invitrogen, catalog number 16140). The day prior to assay set-up, cells were pelleted, resuspended in fresh media, counted, and cells were plated at 0.4×10^6 cell/mL in a T150 flask. On the day of the assay, cells were pelleted, resuspend in fresh media, counted and seeded at 5,000 cells/well in white opaque 96-well tissue culture treated microplates (Perkin Elmer, catalog number 6005680). Cells were exposed to different concentrations of test compounds at 37° C., 5% CO2 for 72 hours immediately after seeding. Cell viability was acquired on a Perkin Elmer Envision 2104 multilabel reader using the CellTiter-Glo assay (Promega) according to the manufacturer's instructions.

human DHODH = human DHODH (Homo sapiens (Human), UniProt Q02127); experiment: DHODH Enzymatic Assay; format: biochemical; details: read-out: hDHODH IC50; purified human DHODH, DCIP absorbance, end-point mode
Description: The following assay is referred to herein as the “DHODH Enzymatic Assay.” To detect DHODH enzyme activities, dichloroindophenol (DCIP) is added as the final electron acceptor in the assay. DCIP can accept electrons from the reduced coenzyme Q generated in the assay, or from dihydroorotate (DHO) via FMN by binding presumably to the ubiquinone pocket. DCIP solutions are blue, with an intense absorbance around 600 nm, but becomes colorless upon reduction (J. Biol. Chem. (1986) 261, 11386). The assay buffer contained […], pH 7.5, 150 mM NaCl, 0.5 mM EDTA, and 0.1% Triton X-100 in MilliQ water. Substrate consisting of 20 mM DHO, 5 mM CoQ6, and 1 mM DCIP in assay buffer, initiates the reaction. The assay is run in end-point mode by quenching the reaction with the potent DHODH inhibitor brequinar. Absorbance measurements were obtained using the BMG Phera Star plate-reading spectrophotomer. Purified human DHODH was purchased from Proteros (cat. No. PR-0044). Chemicals were purchased from Sigma-Aldrich, Teknova, and Avanti Polar Lipids. Liquid handling was performed using Labcyte Echo and Formulatrix Tempest.

pIC50 [1]: < 7.00
pIC50 (human DHODH): 7.83
SMILES: CCn1c(CO)nn(-c2cc3c(C(C)C)cn(-c4cc(C)cnc4Cl)c(=O)c3cc2F)c1=O [Example 98, 2-(2-Chloro-5-methylpyridin-3-yl)-6-(4-ethyl-3-(hydroxymethyl)-5-oxo-4,5-dihydro-1H-1,2,4-triazol-1-yl)-7-fluoro-4-isopropylisoquinolin-1(2H)-one]

pIC50: −log10 of the molar value.
